Reference: patent US9023623B2, “Method for preparing of allicin injection and low-temperature continuous stirring ultrafiltration device thereof” (Xinjiang Ailexin Pharmaceutical Co., Ltd., priority 2010, dated 2015)
pIC50: −log10 of the molar value. Where two headings read alike, the source gives them in different places.

Experiments:
Hep3B, SMMC-7721 = test: Anti-tumor test, IC50 on cell line
[1] = tested on: MDA-MB-435S, breast carcinoma high transitional cell; test: Anti-tumor test, IC50 on cell line
[2] = tested on: BGC823, gastric carcinoma cell line; test: Anti-tumor test, IC50 on cell line
thirteen cell strains = test: Anti-tumor test, summary over the cell strains of table 1; conditions: summary of table 1
[3] = tested on: Jurkat E6-1, acute T cell leukemia; test: Anti-tumor test, IC50 on cell line; conditions: 5000 cells/well
[4] = tested on: PC-3, prostate cancer cell line; test: Anti-tumor test, IC50 on cell line; conditions: 5000 cells/well
[5] = tested on: HT-29, moderately differentiated colon carcinoma cell of human; test: Anti-tumor test, IC50 on cell line; conditions: 5000 cells/well
[6] = tested on: ZR-75-1, breast carcinoma cell line; test: Anti-tumor test, IC50 on cell line; conditions: 4000 cells/well
[7] = tested on: MCF-7, breast carcinoma cell line; test: Anti-tumor test, IC50 on cell line; conditions: 5000 cells/well
[8] = tested on: PANC-1, pancreatic cancer cell line; test: Anti-tumor test, IC50 on cell line; conditions: 5000 cells/well
[9] = tested on: K562, chronic myelogenous leukemia; test: Anti-tumor test, IC50 on cell line; conditions: 5000 cells/well
[10] = tested on: A549, lung cancer cell line; test: Anti-tumor test, IC50 on cell line; conditions: 5000 cells/well
[11] = tested on: L1210, mice leukemic cell; test: Anti-tumor test, IC50 on cell line; conditions: 2000 cells/well
[12] = tested on: HCT116, human large intestine cancer cell line; test: Anti-tumor test, IC50 on cell line; conditions: 3000 cells/well
[13] = read-out: IC50 of Taxol (nM) 1, 5000 cells/well, run 1
[14] = read-out: IC50 of Taxol (nM) 2, 5000 cells/well, run 2
[15] = read-out: IC50 of Taxol (nM) 3, 5000 cells/well, run 3

SMILES: CC(=O)O[C@H]1C(=O)[C@@]2(C)[C@H]([C@H](OC(=O)c3ccccc3)[C@]3(O)C[C@H](OC(=O)[C@H](O)[C@@H](NC(=O)c4ccccc4)c4ccccc4)C(C)=C1C3(C)C)[C@]1(OC(C)=O)CO[C@@H]1C[C@@H]2O
- IC50 (Hep3B, SMMC-7721; [13]): 6.79 nM
- IC50 (Hep3B, SMMC-7721; [14]): 6.21 nM
- IC50 (Hep3B, SMMC-7721; [15]): 6.9 nM
- IC50 [1, 13]: 0.226 nM
- IC50 [1, 14]: 0.215 nM
- IC50 [1, 15]: 0.212 nM
- IC50 [2, 13]: 9.18 nM
- IC50 [2, 14]: 9.07 nM
- IC50 [2, 15]: 9.3 nM
- pIC50 (thirteen cell strains; read-out: Inhibitory Concentration 50 (IC50) of Taxol on various kinds of cells): ≥ 8.00

SMILES: C=CCS[S+]([O-])CC=C (centres unmarked) [Allicin, thio-2-propene-1-sulfinic acid S-allyl ester]
- IC50 of Allicin (μg/ml) 1 ([3]; run 1): 1.132 ± 1.28 µg/mL
- IC50 of Allicin (μg/ml) 2 ([3]; run 2): 1.401 ± 1.27 µg/mL
- IC50 of Allicin (μg/ml) 3 ([3]; run 3): 1.231 ± 1.14 µg/mL
- IC50 of Allicin (μg/ml) 1 ([4]; run 1): 6.583 ± 1.07 µg/mL
- IC50 of Allicin (μg/ml) 2 ([4]; run 2): 6.908 ± 1.06 µg/mL
- IC50 of Allicin (μg/ml) 3 ([4]; run 3): 7.868 ± 1.08 µg/mL
- IC50 of Allicin (μg/ml) 1 ([5]; run 1): 6.282 ± 1.07 µg/mL
- IC50 of Allicin (μg/ml) 2 ([5]; run 2): 7.733 ± 1.07 µg/mL
- IC50 of Allicin (μg/ml) 3 ([5]; run 3): 6.980 ± 1.08 µg/mL
- IC50 of Allicin (μg/ml) 1 ([6]; run 1): 5.466 ± 1.12 µg/mL
- IC50 of Allicin (μg/ml) 2 ([6]; run 2): 3.019 ± 1.30 µg/mL
- IC50 of Allicin (μg/ml) 3 ([6]; run 3): 4.759 ± 1.13 µg/mL
- IC50 of Allicin (μg/ml) 1 ([7]; run 1): 5.853 ± 1.11 µg/mL
- IC50 of Allicin (μg/ml) 2 ([7]; run 2): 8.075 ± 1.10 µg/mL
- IC50 of Allicin (μg/ml) 3 ([7]; run 3): 10.9 ± 1.117 µg/mL
- IC50 of Allicin (μg/ml) 1 (Hep3B, SMMC-7721; 5000 cells/well, run 1): 4.917 ± 1.05 µg/mL
- IC50 of Allicin (μg/ml) 2 (Hep3B, SMMC-7721; 5000 cells/well, run 2): 4.980 ± 1.04 µg/mL
- IC50 of Allicin (μg/ml) 3 (Hep3B, SMMC-7721; 5000 cells/well, run 3): 4.564 ± 1.03 µg/mL
- IC50 of Allicin (μg/ml) 1 ([1]; 5000 cells/well, run 1): 10.98 ± 1.04 µg/mL
- IC50 of Allicin (μg/ml) 2 ([1]; 5000 cells/well, run 2): 11.34 ± 1.03 µg/mL
- IC50 of Allicin (μg/ml) 3 ([1]; 5000 cells/well, run 3): 10.90 ± 1.05 µg/mL
- IC50 of Allicin (μg/ml) 1 ([8]; run 1): 5.972 ± 1.02 µg/mL
- IC50 of Allicin (μg/ml) 2 ([8]; run 2): 5.941 ± 1.05 µg/mL
- IC50 of Allicin (μg/ml) 3 ([8]; run 3): ~6.204 µg/mL
- IC50 of Allicin (μg/ml) 1 ([9]; run 1): 6.302 ± 1.06 µg/mL
- IC50 of Allicin (μg/ml) 2 ([9]; run 2): ~5.884 µg/mL
- IC50 of Allicin (μg/ml) 3 ([9]; run 3): 5.817 ± 1.05 µg/mL
- IC50 of Allicin (μg/ml) 1 ([10]; run 1): 6.321 ± 1.10 µg/mL
- IC50 of Allicin (μg/ml) 2 ([10]; run 2): 6.327 ± 1.08 µg/mL
- IC50 of Allicin (μg/ml) 3 ([10]; run 3): 8.032 ± 1.04 µg/mL
- IC50 of Allicin (μg/ml) 1 ([2]; 5000 cells/well, run 1): 6.318 ± 1.09 µg/mL
- IC50 of Allicin (μg/ml) 2 ([2]; 5000 cells/well, run 2): 5.679 ± 1.07 µg/mL
- IC50 of Allicin (μg/ml) 3 ([2]; 5000 cells/well, run 3): 6.192 ± 1.07 µg/mL
- IC50 of Allicin (μg/ml) 1 ([11]; run 1): 2.266 ± 1.20 µg/mL
- IC50 of Allicin (μg/ml) 2 ([11]; run 2): 2.090 ± 1.36 µg/mL
- IC50 of Allicin (μg/ml) 3 ([11]; run 3): 1.542 ± 1.19 µg/mL
- IC50 of Allicin (μg/ml) 1 ([12]; run 1): 3.721 ± 1.10 µg/mL
- IC50 of Allicin (μg/ml) 2 ([12]; run 2): 4.258 ± 1.15 µg/mL
- IC50 of Allicin (μg/ml) 3 ([12]; run 3): 3.542 ± 1.09 µg/mL
- IC50 of allicin to 13 of the cell strains (thirteen cell strains): below 10 μg/ml
